Patent publication US10017509B2, “Macrocylic pyrimidine derivatives” (Janssen Pharmaceutica NV, priority 2014, dated 2018)

Sequences of proteins named here, by UniProt entry; tags and fusion partners are left off.
UniProt O00418, whole entry: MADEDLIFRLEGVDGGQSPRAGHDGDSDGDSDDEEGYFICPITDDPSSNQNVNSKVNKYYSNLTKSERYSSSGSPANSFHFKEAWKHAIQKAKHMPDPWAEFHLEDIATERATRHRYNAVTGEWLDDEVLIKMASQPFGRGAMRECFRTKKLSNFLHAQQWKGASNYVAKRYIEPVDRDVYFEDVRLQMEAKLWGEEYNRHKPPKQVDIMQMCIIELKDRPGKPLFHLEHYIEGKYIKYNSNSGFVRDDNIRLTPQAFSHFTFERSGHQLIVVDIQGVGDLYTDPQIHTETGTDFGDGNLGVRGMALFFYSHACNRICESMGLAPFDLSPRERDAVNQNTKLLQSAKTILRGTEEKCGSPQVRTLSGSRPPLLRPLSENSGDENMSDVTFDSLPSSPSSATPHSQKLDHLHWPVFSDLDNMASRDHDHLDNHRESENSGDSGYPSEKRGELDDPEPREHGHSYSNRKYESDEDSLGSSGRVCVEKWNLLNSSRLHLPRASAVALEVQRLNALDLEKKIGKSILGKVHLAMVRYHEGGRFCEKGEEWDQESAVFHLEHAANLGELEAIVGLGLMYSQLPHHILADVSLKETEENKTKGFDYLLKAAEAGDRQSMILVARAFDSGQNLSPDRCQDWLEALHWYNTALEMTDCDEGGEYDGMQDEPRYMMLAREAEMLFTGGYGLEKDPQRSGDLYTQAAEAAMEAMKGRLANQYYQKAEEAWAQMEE
UniProt Q8NEB9, whole entry: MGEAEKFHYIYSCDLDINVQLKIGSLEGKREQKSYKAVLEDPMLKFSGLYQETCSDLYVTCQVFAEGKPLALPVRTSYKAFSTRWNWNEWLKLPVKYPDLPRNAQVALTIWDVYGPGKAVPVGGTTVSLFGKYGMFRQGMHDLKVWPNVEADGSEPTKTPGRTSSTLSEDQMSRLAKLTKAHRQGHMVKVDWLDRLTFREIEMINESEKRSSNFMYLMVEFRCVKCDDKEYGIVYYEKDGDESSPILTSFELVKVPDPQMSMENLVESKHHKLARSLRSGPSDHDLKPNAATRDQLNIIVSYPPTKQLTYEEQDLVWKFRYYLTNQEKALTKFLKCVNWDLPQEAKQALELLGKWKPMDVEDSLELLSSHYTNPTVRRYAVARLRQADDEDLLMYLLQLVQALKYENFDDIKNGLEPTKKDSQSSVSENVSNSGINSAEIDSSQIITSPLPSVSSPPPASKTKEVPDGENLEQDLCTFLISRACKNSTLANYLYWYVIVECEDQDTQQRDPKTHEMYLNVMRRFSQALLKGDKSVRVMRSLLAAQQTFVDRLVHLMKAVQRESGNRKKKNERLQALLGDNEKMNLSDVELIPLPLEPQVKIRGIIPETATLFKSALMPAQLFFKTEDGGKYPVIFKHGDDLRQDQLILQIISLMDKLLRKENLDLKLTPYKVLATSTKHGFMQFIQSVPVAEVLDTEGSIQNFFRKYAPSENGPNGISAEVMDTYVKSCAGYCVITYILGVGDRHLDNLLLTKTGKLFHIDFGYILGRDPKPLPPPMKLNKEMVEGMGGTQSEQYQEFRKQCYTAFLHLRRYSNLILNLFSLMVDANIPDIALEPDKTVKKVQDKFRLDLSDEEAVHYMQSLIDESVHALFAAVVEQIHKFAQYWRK

How the values were obtained:
EF2K [1] = molecular target: T1, EF2K (Homo sapiens, UniProt O00418); test: Biochemical EF2K lysate-based kinase assay (AlphaLISA p-eEF2 Thr56); conditions: pIC50 = -log IC50 (M)
Text: Biochemical EF2K Lysate-Based Kinase Assay
LN-229 cells were purchased from ATCC (CRL-2611); these are glioblastoma cells. Cell lysates from LN229 were used in this kinase assay to provide both the kinase and the substrate (EF2). The AlphaLISA p-eEF2 (Thr56) detection assay was developed using a sandwich assay format with two specific antibodies recognizing different epitopes of the target, including one antibody against the phosphorylation site of interest. One anti-eEF2 antibody was conjugated onto AlphaLISA Acceptor beads, while the second antibody was biotinylated and captured by streptavidin coated Donor beads.
Compound was mixed with LN-229 cell lysates in the presence of a kinase buffer (e.g. HEPES) at a pH of 6.6, containing 10 mM Mg^2+ (e.g. magnesium acetate) and 10 mM adenosine-tri-phosphate (ATP) and incubated at room temperature for 15 minutes. The kinase reaction was stopped with excess ethylenediaminetetraacetic acid disodium salt and the biotinylated-anti phospho eEF2 antibody (3 nM) was added for 1 hour. Then the anti-EF2 acceptor beads (10 μg/ml) as well as the streptavidin coated donor beads (20 μg/ml) were added for 1 hour, and the AlphaLISA signal was measured in an Envision instrument once, left overnight, and measured again for the final read.
(§1) (pIC50 is −log IC50 where IC50 represents the concentration expressed in M at which the test compound gives 50% inhibition)

[2] = molecular target: Vps34 (PIK3C3 lipid kinase) (Homo sapiens, UniProt Q8NEB9); test: Biochemical Vps34 lipid kinase assay (ADP-Glo); conditions: for VPS34_1microM_% of cntrl: single dose 1 μM compound, residual activity compared to control (DMSO); for VPS34 pIC50: serial half-log dilution 10 μM to 0.3 nM, pIC50 = -log IC50 (M)
Method: Biochemical Vps34 Lipid Kinase Assay
A non-radiometric kinase assay (ADP-Glo™ Assay, Promega, Madison, Wi, USA) was used for measuring the kinase activity of the PIK3C3 lipid kinase. All kinase assays were performed in 96-well half-area microtiter plates in a 25 μl reaction volume. The reaction cocktail was pipetted in 3 steps in the following order: • 10 μl of ATP solution (in assay buffer, see below) • 5 μl of test sample in 5% DMSO 10 μl of enzyme/substrate mixture
All lipid kinase assays contained 50 mM HEPES (4-(2-hydroxyethyl)-1-piperazineethanesulfonic acid)-NaOH, pH 7.5, 1 mM EGTA ((ethylene glycol tetraacetic acid), 100 mM NaCl, 0.03% CHAPS (3-[(3-Cholamidopropyl)dimethylammonio]-1-propanesulfonate), 2 mM DTT (Dithiothreitol), 20 μM ATP (corresponding to the apparent ATP-Km), kinase (7.6 nM) and substrate (50 μM). The assay for PIK3C3 additionally contained 3 mM MnCl2.
The reaction cocktails were incubated at 30° C. for 60 minutes. The reaction was stopped with 25 μl ADP-Go™ reagent per well. Plates were incubated for 40 minutes at room temperature, followed by addition of 50 μl kinase detection reagent per well and incubation for 60 minutes at room temperature. Signal was determined with a microplate luminescence reader (Victor, Perkin Elmer). The assay was either performed using a single dose of compound (1 μM final concentration in the assay reaction) with resulting data expressed as residual activity compared to control (DMSO), or using a serial (half-log) dilution of compounds starting at 10 μM and down to 0.3 nM (final concentrations in the assay) with data expressed as the pIC50.
as §1

EF2K [3] = molecular target: T1, EF2K; test: EF2K cell-based assay (P-EF2 AlphaLISA, 2-deoxyglucose stimulated MCF10A cells); conditions: 2.5 mM 2-deoxyglucose stimulated, P-EF2 Thr56, pIC50 = -log IC50 (M)
Method: In this assay, 2.5 mM 2-deoxyglucose was used to deplete intracellular ATP and activate 5′ adenosine monophosphate-activated protein kinase (AMPK) in the immortalized epithelial breast cell lines, MCF10A. MCF 10A cells were purchased from ATCC (CRL-10317).
MCF10A cells are seeded at a density of 1.25×10^5 Cells/ml at 100 μl/well in a 96-well plate and incubated for 24 hours (37° C., 5% CO2). Compound is added for 1 hour, and cell are stimulated with 2.5 mM of 2-deoxy-glucose for 4 hours. Medium is then removed, and cells are lysed in an ice-cold buffer M-PER (Thermo Scientific, 78501), containing protease and phosphatase inhibitors. P-EF2 levels are determined in these lysates using the P-EF2 AlphaLISA described above.
as §1

eEF2K_C_alphalisa pIC50 (EF2K [1])	VPS34_1microM_% of cntrl [2]	eEF2K_C_PThr56 pIC50 (EF2K [3])	VPS34 pIC50 [2]	Structure (SMILES)
4.83	59.71 % of cntrl			CN1CCCOc2ccc(cn2)-c2ccnc(n2)Nc2cccc(c2)CN2CCN(CC2)CC1=O
7.17	14.26 % of cntrl	~4.89	6.48	CN1CCCN(C)c2ccc(cn2)-c2ccnc(n2)Nc2cccc(c2)CN2CCN(CC1=O)C(CO)C2 (single isomer, unassigned) [Compound 95]
7.09	26.45 % of cntrl	4.83	6.07	CN1CCCN(C)c2ccc(cn2)-c2ccnc(n2)Nc2cccc(c2)CN2CCN(CC1=O)CC2COCCC#N (stereo not shown)
